Like-named read-outs stand apart in the source and are kept apart here.
Test system: CDC1551(ΔdosR) mutant
Assay type: cell-based

C[C@@H]1CC[C@H]2[C@@H](C)C(=O)O[C@@H]3O[C@]4(C)CC[C@@H]1[C@]32OO4 [HC101A, artemisinin, reference compound]
DosR DMSO/DosR HC101A Fold change (gene MT0169 Rv0160c PE, HC101A vs DMSO): 0.3769 | DosR DMSO/DosR HC101A Fold change (gene MT0258 Rv0244c fadE5, HC101A vs DMSO): 0.4765 | DosR DMSO/DosR HC101A Fold change (gene MT0273 Rv0260c, HC101A vs DMSO): 0.2767 | DosR DMSO/DosR HC101A Fold change (gene MT0292 Rv0280 PPE, HC101A vs DMSO): 0.4213 | DosR DMSO/DosR HC101A Fold change (gene MT0329 Rv0315, HC101A vs DMSO): 0.4217 | DosR DMSO/DosR HC101A Fold change (gene MT0456 Rv0440 groEL2, HC101A vs DMSO): 0.4219 | DosR DMSO/DosR HC101A Fold change (gene MT0468 Rv0452, HC101A vs DMSO): 2.609 | DosR DMSO/DosR HC101A Fold change (gene MT0483 Rv0467 aceA, HC101A vs DMSO): 0.3537 | DosR DMSO/DosR HC101A Fold change (gene MT0484, HC101A vs DMSO): 0.4124 | DosR DMSO/DosR HC101A Fold change (gene MT0493 Rv0475, HC101A vs DMSO): 0.4739 | DosR DMSO/DosR HC101A Fold change (gene MT0530 Rv0509 hemA, HC101A vs DMSO): 2.042 | DosR DMSO/DosR HC101A Fold change (gene MT0531 Rv0510 hemC, HC101A vs DMSO): 2.374 | DosR DMSO/DosR HC101A Fold change (gene MT0532 Rv0511 cysG, HC101A vs DMSO): 2.326 | DosR DMSO/DosR HC101A Fold change (gene MT0533 Rv0512 hemB, HC101A vs DMSO): 2.422 | DosR DMSO/DosR HC101A Fold change (gene MT0583 Rv0557, HC101A vs DMSO): 2.162 | DosR DMSO/DosR HC101A Fold change (gene MT0586 Rv0560c, HC101A vs DMSO): 3.863 | DosR DMSO/DosR HC101A Fold change (gene MT0658 Rv0630c recB, HC101A vs DMSO): 2.029 | DosR DMSO/DosR HC101A Fold change (gene MT0705 Rv0676c mmpL5, HC101A vs DMSO): 3.683 | DosR DMSO/DosR HC101A Fold change (gene MT0706 Rv0677c mmpS5, HC101A vs DMSO): 3.164 | DosR DMSO/DosR HC101A Fold change (gene MT0706.1 Rv0678, HC101A vs DMSO): 2.974 | DosR DMSO/DosR HC101A Fold change (gene MT0772.5 Rv0747 PE_PGRS, HC101A vs DMSO): 2.06 | DosR DMSO/DosR HC101A Fold change (gene MT0808 Rv0784, HC101A vs DMSO): 4.335 | DosR DMSO/DosR HC101A Fold change (gene MT0901 Rv0878c PPE, HC101A vs DMSO): 0.484 | DosR DMSO/DosR HC101A Fold change (gene MT0908 Rv0885, HC101A vs DMSO): 0.09476 | DosR DMSO/DosR HC101A Fold change (gene MT0909 Rv0886 fprB, HC101A vs DMSO): 0.1128 | DosR DMSO/DosR HC101A Fold change (gene MT0911 Rv0888, HC101A vs DMSO): 0.3301 | DosR DMSO/DosR HC101A Fold change (gene MT0915.1, HC101A vs DMSO): 0.4347 | DosR DMSO/DosR HC101A Fold change (gene MT0956 Rv0929 pstC2, HC101A vs DMSO): 2.052 | DosR DMSO/DosR HC101A Fold change (gene MT1019 Rv0990c, HC101A vs DMSO): 0.4244 | DosR DMSO/DosR HC101A Fold change (gene MT1020, HC101A vs DMSO): 0.4173 | DosR DMSO/DosR HC101A Fold change (gene MT1073 Rv1043c, HC101A vs DMSO): 2.098 | DosR DMSO/DosR HC101A Fold change (gene MT1123 Rv1091 PE_PGRS, HC101A vs DMSO): 2.021 | DosR DMSO/DosR HC101A Fold change (gene MT1224 Rv1187 rocA, HC101A vs DMSO): 0.4905 | DosR DMSO/DosR HC101A Fold change (gene MT1233 Rv1195 PE, HC101A vs DMSO): 0.3447 | DosR DMSO/DosR HC101A Fold change (gene MT1296 Rv1257c, HC101A vs DMSO): 2.295 | DosR DMSO/DosR HC101A Fold change (gene MT1297 Rv1258c, HC101A vs DMSO): 3.349 | DosR DMSO/DosR HC101A Fold change (gene MT1303 Rv1265, HC101A vs DMSO): 2.191 | DosR DMSO/DosR HC101A Fold change (gene MT1385, HC101A vs DMSO): 0.3008 | DosR DMSO/DosR HC101A Fold change (gene MT1424 Rv1380 pyrB, HC101A vs DMSO): 2.37 | DosR DMSO/DosR HC101A Fold change (gene MT1425 Rv1381 pyrC, HC101A vs DMSO): 2.26 | DosR DMSO/DosR HC101A Fold change (gene MT1426, HC101A vs DMSO): 2.443 | DosR DMSO/DosR HC101A Fold change (gene MT1427 Rv1383 car A, HC101A vs DMSO): 2.007 | DosR DMSO/DosR HC101A Fold change (gene MT1428 Rv1384 carB, HC101A vs DMSO): 2.166 | DosR DMSO/DosR HC101A Fold change (gene MT1429 Rv1385 pyrF, HC101A vs DMSO): 2.871 | DosR DMSO/DosR HC101A Fold change (gene MT1430 Rv1386 PE, HC101A vs DMSO): 0.4983 | DosR DMSO/DosR HC101A Fold change (gene MT1431 Rv1387 PPE, HC101A vs DMSO): 0.4348 | DosR DMSO/DosR HC101A Fold change (gene MT1484 Rv1439c, HC101A vs DMSO): 0.3515 | DosR DMSO/DosR HC101A Fold change (gene MT1585.1, HC101A vs DMSO): 0.2117 | DosR DMSO/DosR HC101A Fold change (gene MT1586 Rv535 Rv1535, HC101A vs DMSO): 0.255 | DosR DMSO/DosR HC101A Fold change (gene MT1620 Rv1569 bioF, HC101A vs DMSO): 2.269 | DosR DMSO/DosR HC101A Fold change (gene MT1627, HC101A vs DMSO): 0.4203 | DosR DMSO/DosR HC101A Fold change (gene MT1628 Rv1592c, HC101A vs DMSO): 0.4323 | DosR DMSO/DosR HC101A Fold change (gene MT1736, HC101A vs DMSO): 0.4867 | DosR DMSO/DosR HC101A Fold change (gene MT1775, HC101A vs DMSO): 0.4957 | DosR DMSO/DosR HC101A Fold change (gene MT1836 Rv1787 PPE, HC101A vs DMSO): 3.598
